The values that follow come from patent US7842715B2, “N-benzoyl- and N-benzylpyrrolidin-3-ylamines as histamine-3 antagonists” (Wyeth LLC, priority 2006, dated 2010).

Protein sequences, listed by entry. Tags and fused reporters are not part of them.
UniProt Q9Y5N1, whole entry: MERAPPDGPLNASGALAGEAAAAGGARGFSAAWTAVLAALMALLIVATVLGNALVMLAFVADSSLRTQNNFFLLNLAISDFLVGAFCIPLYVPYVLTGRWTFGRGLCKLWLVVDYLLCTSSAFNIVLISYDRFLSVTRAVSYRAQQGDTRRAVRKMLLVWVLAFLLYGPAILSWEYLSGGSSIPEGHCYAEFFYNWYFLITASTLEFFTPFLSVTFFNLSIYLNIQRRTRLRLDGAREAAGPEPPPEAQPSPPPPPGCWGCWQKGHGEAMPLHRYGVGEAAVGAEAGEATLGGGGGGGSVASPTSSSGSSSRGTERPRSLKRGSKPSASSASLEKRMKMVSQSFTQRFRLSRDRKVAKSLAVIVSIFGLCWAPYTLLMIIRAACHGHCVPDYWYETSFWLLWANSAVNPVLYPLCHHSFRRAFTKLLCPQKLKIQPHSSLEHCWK

SMILES strings stand for the structures.

In this experiment the target is Histamine Receptor H3 (Homo sapiens, UniProt Q9Y5N1). Nature of the experiment: Cyclic AMP assay for histamine receptor H3 antagonism activity. As to conditions: read-out: cAMP Kb; stable H3 cells; histamine plus 10 μM forskolin; 30 min at 30° C. As to the method: Cyclic AMP Assay for Histamine Receptor H3 Antagonism Activity.
Stable H3 cells are maintained in tissue culture flask in DMEM with high glucose, 10% FBS, 1× pen/strep, 500 ug/ml GY18, until experiment. Culture media is removed and cells are washed twice with PBS w/ Ca++ and Mg++ plus 500 μM IBMX. Cells are then detached by tapping on the side of the flask and resuspend in the same buffer. Two thousand cells/well are incubated with […] histamine plus 10 μM forskolin plus various concentrations of compounds in a total volume of 30 μL in 96 well plates for 30 min at 30° C. Final test compound concentrations range from 10^-4M to 10-9.5M at full log dilutions. Cyclic AMP levels are measured using HitHunter cAMP kit from Discoverx, cat# 900041 according to manufacturer's instruction. Chemiluminescence signals are detected using Top Count (Packard). Cyclic AMP levels in control cells receiving 10 μM forskolin plus 100 nM histamine are considered 0%, and in cells receiving 10 uM forskolin plus 100 nM histamine plus 1 μM clobenpropit are considered 100%. Data are expressed as % control and analyzed using Prizm soft ware. The Kb values are calculated using the following equation, KB=EC50 or IC50/[1+(ligand/Kd)].

On to `CN(C)C1CCN(C(=O)c2ccc(Nc3ncnc4ccsc34)cc2)C1` (stereo not shown), for which the Kb (usually the equilibrium dissociation constant of an antagonist, usually derived from a functional assay) was 10.8 nM.
